≈ marks a conversion by molar mass, not a printed value.
Key:
[1] = test system: intracellular S. aureus in the human THP-1 monocytes; settings: ref Brinch et al., 2010; cited from earlier work
Excerpt: (§1) Antimicrobial peptides (AMPs) are a new class of antimicrobial agents with a new mode of action and appear as one of the most promising antimicrobial medicines ([Hancock and Sahl, 2006]). Plectasin with 40 amino acids is a cationic AMP isolated from the saprophytic ascomycete Pseudoplectania nigrella and has a potent activity against gram-positive bacteria ([Mygind et al., 2005]). Most AMPs have been thought to target the bacterial cell membrane.

Staphylococci = settings: susceptibility testing; ref Zhang et al., 2014; cited from earlier work
Excerpt: as §1

[2] = test system: Staphylococcus aureus E48; format: cell-based; settings: Mueller-Hinton broth, 5 × 10^5 CFU/mL, 37°C, 16-20 h, three replicates
Protocol: Staphylococcus aureus E48, a clinical mastitis isolate, had been used to induce mouse mastitis model ([Wang et al., 2017]). […] It was used as a positive control in this study and was purchased from Sigma–Aldrich. The AMPs were prepared according to a previously described protocol ([Zhang et al., 2015]). The minimum inhibitory concentrations (MICs) were used to evaluate the antibacterial activities of antimicrobial agents ([Wiegand et al., 2008]). Briefly, S. aureus were grown to the log-phase at 37°C in the Mueller–Hinton broth, and diluted to 5 × 10^5 CFU/mL with the fresh medium. A total of 180 μL of cell suspension and 20 μL of serially twofold diluted peptide were added to each well, and the plates were incubated at 37°C for 16–20 h. The final concentration of antimicrobial agents was prepared with gradients of 64, 32, 16, 8, 4, 2, 1, 0.5, 0.25, 0.125, and 0.0625 μg/mL. Three replicates were examined for each concentration. The MICs refer to the lowest concentration where no growth was visible after 16–20 h of incubation.

[3] = test system: S. aureus E48 in mammary glands; experiment: Mouse model of S. aureus-induced mastitis; format: in vivo, BALB/c mice; settings: 100 μg intramammary 45 min after ~10^4 CFU inoculation, 24 h after inoculation
Protocol: The animal protocols used in this work were approved by Institutional Animal Care and Use Committee of Northwest A&F University. The 6- to 8-week-old specific-pathogen-free BALB/c mice were purchased from the Experimental Animal Center of the Medical College of Xi’an Jiao Tong University. […] The lactating mice were challenged with S. aureus E48 as described earlier ([Schmelcher et al., 2015]). The pentobarbital sodium (1.4 mg/20 g bodyweight) was used for anesthesia of the lactating mice by intraperitoneal injection. The distal end of the teat L4 (on the left) and R4 (on the right) was removed (snipped) by a small cut. These L4 and R4 glands constitute the fourth pair found from head to tail. For all groups except for the snipped only group, glands were injected with approximately 10^4 CFU S. aureus in 50 μL PBS. At 45 min after S. aureus inoculation, the challenged glands were injected with 100 μg AMPs in 20 μL or 20 μL of PBS, depending on the treatment. The mice were euthanized 24 h after the S. aureus inoculation, and mammary glands were aseptically collected and weighed. Five mice (10 mammary glands) were used for each group. Seven mammary glands from each treatment were sampled and homogenized in PBS (100 mg/200 μL). Serial dilution plating on Baird-Parker agar plates was done to determine intramammary S. aureus. […]

[4] = test system: internalized S. aureus E48 in MAC-T cells; experiment: Intracellular activity in cultured mammary epithelial cells; format: cell-based, Staphylococcus aureus; settings: 100 μg/mL, 24 h exposure, change in Log10 CFU/well versus initial
Protocol: (§2) An established bovine mammary epithelial cell line, designated MAC-T, which has been used for S. aureus internalization assays ([Hensen et al., 2000]; [Bouchard et al., 2013]), was used for this experiment. The MAC-T cell was cultured in cell culture dishes in the Dulbecco’s modified eagle medium (DMEM) containing 100 U/mL penicillin, 100 μg/mL streptomycin, and 10% heat-inactivated fetal calf serum. MAC-T cells were incubated in a humidified incubator at 37°C with 5% CO2. After the cells were cultured to a confluent monolayer, the trypsin + EDTA solution (0.1%/0.04%) was added. The MAC-T cells were suspended in fresh medium at a concentration of 2 × 10^5 cells/mL and cells were then seeded in 24-well plates (1 × 10^5 cells/well) and incubated overnight at 37°C in 5% CO2 to obtain a confluent monolayer for the internalization assay.
The intracellular activities of AMPs were performed as previously described ([Peyrusson et al., 2015]) with minor modifications. Bacteria (1 × 10^7 CFU) were added to mammary epithelial cell cultures at a bacterium-to-epithelial cell ratio of 100:1. After 1 h, extracellular bacteria were removed by thorough washing and gentamicin. Washing was performed by rinsing a well with PBS 10 times. […] The number of intracellular bacteria was determined. […]

S. aureus E48 [5] = experiment: Bactericidal activity in bovine UHT whole milk; format: cell-based, Staphylococcus aureus; settings: 100 μg/mL, 37°C
Protocol: The activities of antimicrobial agents on S. aureus in bovine milk were determined in commercial whole-fat ultra-high-temperature-sterilized (UHT) milk as described by [Schmelcher et al. (2012)]. UHT milk (Inner Mongolia Yili Industrial Group Co., Ltd.) at 37°C was inoculated with 5 × 10^5 CFU/mL of exponentially growing cultures of S. aureus E48 in the presence of antimicrobial agents (100 μg/mL) or PBS buffer (negative control). The mixture was incubated without shaking. Samples were taken at 0, 2, 3, and 4 h after inoculation, and serially diluted in sterile PBS, plated onto TSA plates to count colonies after incubated at 37°C for 24 h. The absence of S. aureus E48 in non-inoculated UHT milk was verified by direct plating. Three independent assays were carried out on separate days.

[6] = test system: MAC-T bovine mammary epithelial cells; experiment: Mammary epithelial cell viability (CCK-8); format: cell-based; settings: 100 μg/mL, CCK-8, versus negative control, data not shown
Protocol: as §2, with “The” for “An established bovine mammary epithelial cell line, designated MAC-T, which has been used for S. aureus internalization assays ([Hensen et al., 2000]; [Bouchard et al., 2013]), was used for this experiment. The”

S. aureus E48 [7] = experiment: Time-kill kinetics in TSB culture medium; format: cell-based, Staphylococcus aureus; settings: 37°C, 24 h
Protocol: S. aureus E48 at the concentration of 5 × 10^5 CFU/mL in fresh TSB medium was added to a flask, together with antimicrobial agents at concentrations of 0.5, 1, or 5 × MIC. The mixture was cultured at 37°C with shaking for 24 h. At 0, 2, 4, 8, 12, and 24 h of incubation, 100 μL sample was taken from each flask, serially diluted in sterile phosphate-buffered saline (PBS), plated onto tryptic soy agar (TSA) plates to count colonies after incubated at 37°C for 24 h. The experiments were repeated three times.

SMILES: CC[C@H](C)[C@@H]1NC(=O)[C@H](CO)NC(=O)[C@H](CCCCN)NC(=O)[C@@H]2CSSC[C@@H](C(=O)N[C@@H](Cc3ccc(O)cc3)C(=O)O)NC(=O)[C@H](CCCCN)NC(=O)[C@@H]3CSSC[C@H](NC(=O)[C@H](CCCNC(=N)N)NC(=O)[C@H](CC(C)C)NC(=O)[C@H](CC(=O)O)NC(=O)[C@H](CC(=O)O)NC(=O)[C@H](CCC(=O)O)NC(=O)[C@H](CC(N)=O)NC(=O)[C@H](Cc4c[nH]c5ccccc45)NC(=O)[C@@H]4CCCN4C(=O)CNC(=O)[C@H](CC(N)=O)NC(=O)[C@@H](NC(=O)CNC(=O)[C@H](Cc4ccccc4)NC(=O)CN)CSSC[C@H](NC(=O)[C@H](Cc4ccc(O)cc4)NC(=O)CNC(=O)CNC(=O)[C@H](CCCCN)NC(=O)[C@H](Cc4ccc(O)cc4)NC(=O)CNC(=O)[C@H](CCCCN)NC1=O)C(=O)N[C@@H](C)C(=O)N[C@@H](CCCCN)C(=O)NCC(=O)NCC(=O)N[C@@H](Cc1ccccc1)C(=O)N[C@@H](C(C)C)C(=O)N3)C(=O)N[C@@H](Cc1c[nH]cn1)C(=O)N[C@@H](CC(N)=O)C(=O)N[C@@H](Cc1c[nH]cn1)C(=O)N2 [NZ2114]
- Activity against intracellular S. aureus in human THP-1 monocytes [1]: could effectively target intracellular S. aureus
- Activity against Staphylococci compared with plectasin (Staphylococci): stronger activity against Staphylococci than plectasin
- MIC against S. aureus E48 [2]: 2 µg/mL (≈ 0.453 µM)
- Reduction of S. aureus numbers in mammary glands compared to PBS control [3]: 2.9 log10 units
- Reduction of internalized S. aureus in bovine mammary epithelial cells [4]: efficient to reduce the internalized S. aureus
- Colonies recovered from bovine milk after 4 h (S. aureus E48 [5]; 4 h, ~10^5 CFU/mL inoculum): almost no colonies recovered
- Reduction of the number of S. aureus in processed bovine milk (S. aureus E48 [5]; within 4 h): ~100%
- Cell viability of mammary epithelial cells [6]: not affected
- Time-kill, effect on S. aureus growth at 0.5×MIC (S. aureus E48 [7]; 0.5×MIC): grew more slowly than those in the control
- Time-kill, effect on S. aureus counts at 1×MIC (S. aureus E48 [7]; 1×MIC): bacterial counts initially decreased, but increased after 8 h post-exposure
- Time-kill, effect on S. aureus counts at 5×MIC (S. aureus E48 [7]; 5×MIC, sampled 0-24 h, repeated three times): most significantly decreased S. aureus at 12 h after inoculation
